GIV Gai3 FP: inhibitors of GIV GBA-motif binding to rat Galpha-i3; percent of control (FP), % (concentration not given with the values); AID 1224905; Galpha-i3/FITC-GIV peptide fluorescence polarization, 90 min; stronger effect = lower value; scaled: aluminum fluoride 0%, vehicle 100%; 210,000 compounds, 0.42% hits; P08753;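 active means replicate mean at 85% of control or lower, very high polarization wells dropped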;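 further: wells of about 15 µL received 100 nL stock; the first replicate is given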
HCMV NEC inh: cytomegalovirus nuclear egress complex inhibition; HTRF UL50-UL53 interaction, normalized percent inhibition; inhibition, % (concentration not given with the values); 190,000 compounds, 0.15% hits; AID 1918969; in the data active = inhibition above about 27%, passing the limit was not always enough
* = called active by the depositor; nt = not tested or not shown. An excerpt weighted towards active compounds, which were near 0.43% of everything screened.

Structure: Cc1ccc(-n2nc(N3CCCN(C(=O)c4[nH]nc5c4CCc4ccccc4-5)CC3)ccc2=O)cc1C
  GIV Gai3 FP: 100.6
  HCMV NEC inh: -28.0
Structure: Nc1oc2cc(O)ccc2c(=O)c1-c1nc2ccccc2s1
  GIV Gai3 FP: 103.8
  HCMV NEC inh: 8.4
Structure: COc1ccccc1N1CCN(C(=O)CCCn2c(SCC(=O)NCc3ccccc3)nc3ccccc3c2=O)CC1
  GIV Gai3 FP: 116.3
  HCMV NEC inh: nt
Structure: N#CC1=C(N)SC(N)=C(C#N)C1c1ccccc1F
  GIV Gai3 FP: nt
  HCMV NEC inh: -19.9
Structure: CC(C)C1C(C#N)=C(N)SC(N)=C1C#N
  GIV Gai3 FP: 121.1
  HCMV NEC inh: -15.1
Structure: Cc1ccc(C2C(C#N)=C(N)SC(N)=C2C#N)c(C)c1
  GIV Gai3 FP: 8.5*
  HCMV NEC inh: -24.9
Structure: N#CC1=C(N)SC(N)=C(C#N)C1c1cccc2ccccc12
  GIV Gai3 FP: -36.0*
  HCMV NEC inh: -47.5
Structure: CCC(C)(C)NS(=O)(=O)c1ccc(-c2nc(C(C)C)cs2)s1
  GIV Gai3 FP: 107.4
  HCMV NEC inh: nt
Structure: CCC1(C)NC(=O)N(/N=C/c2cc(C)n(-c3cccc(S(=O)(=O)N4CCOCC4)c3)c2C)C1=O (stereo not drawn)
  GIV Gai3 FP: nt
  HCMV NEC inh: -13.1
Structure: COc1cc(CN2CCC3(CC2)Nc2ccccc2-n2cccc23)cc(OC)c1OC
  GIV Gai3 FP: 97.1
  HCMV NEC inh: 60.2*
Structure: COc1ccc(S(=O)(=O)N2CCC3(CC2)Nc2ccccc2-n2cccc23)cc1OC
  GIV Gai3 FP: 103.4
  HCMV NEC inh: 5.7
Structure: COc1cccc2c1N=C1OC=CC1C2OC (stereo not drawn)
  GIV Gai3 FP: nt
  HCMV NEC inh: 53.7*
Structure: CN(CCCNC(=O)c1nc(CS(=O)(=O)c2ccc(Cl)cc2)no1)c1ccccc1
  GIV Gai3 FP: 105.8
  HCMV NEC inh: nt
Structure: O=C(Cc1ccc(Cl)cc1)Nc1cc(-n2cnnn2)ccc1Cl
  GIV Gai3 FP: 100.7
  HCMV NEC inh: -29.9
Structure: O=c1[nH]c(Nc2ccccc2)cc2ccccc12
  GIV Gai3 FP: -60.5*
  HCMV NEC inh: 110.4*

Structure: O=C(O)c1cc2ccccc2c(=O)[nH]1
  GIV Gai3 FP: 104.2
  HCMV NEC inh: -23.2
Structure: Cc1ccc(S(=O)(=O)N2CCN(c3cc(=O)n4nc(-c5ccccc5)sc4n3)CC2)cc1
  GIV Gai3 FP: 103.7
  HCMV NEC inh: 33.9
Structure: O=c1cc(N2CCN(S(=O)(=O)c3ccc(F)c(F)c3)CC2)nc2sc(-c3ccccc3)nn12
  GIV Gai3 FP: 101.9
  HCMV NEC inh: 59.7*
Structure: O=C1/C(=C/c2c(NCCCn3ccnc3)nc3ccccn3c2=O)SC(=S)N1CC1CCCO1 (stereo not drawn)
  GIV Gai3 FP: 259.7
  HCMV NEC inh: nt
Structure: CN1C(=O)/C(=C/c2c(N3CCSCC3)nc3ccccn3c2=O)SC1=S
  GIV Gai3 FP: 185.7
  HCMV NEC inh: -4.5
Structure: C=CCNc1nc2ccccn2c(=O)c1/C=C1\SC(=S)N(C)C1=O
  GIV Gai3 FP: -24.4*
  HCMV NEC inh: -36.0
Structure: O=C1/C(=C/c2c(NCc3ccccc3)nc3ccccn3c2=O)SC(=S)N1CC1CCCO1 (stereo not drawn)
  GIV Gai3 FP: 264.3
  HCMV NEC inh: nt
Structure: CCCN1C(=O)/C(=C/c2c(NCC)nc3ccccn3c2=O)SC1=S
  GIV Gai3 FP: -75.4*
  HCMV NEC inh: -23.6
Structure: C=CCNc1nc2ccccn2c(=O)c1/C=C1\SC(=S)N(Cc2ccc3c(c2)OCO3)C1=O
  GIV Gai3 FP: -26.8*
  HCMV NEC inh: nt
Structure: C=CCNc1nc2ccccn2c(=O)c1/C=C1\SC(=S)N(CCOC)C1=O
  GIV Gai3 FP: -75.4*
  HCMV NEC inh: -33.1
Structure: O=C1/C(=C/c2c(NCC3CCCO3)nc3ccccn3c2=O)SC(=S)N1C1CCCCC1 (stereo not drawn)
  GIV Gai3 FP: 315.1
  HCMV NEC inh: nt
Structure: CN(C)c1ccc(NC(=O)c2nc(-c3ccccc3)n(-c3ccc(Cl)cc3)n2)cc1
  GIV Gai3 FP: 97.7
  HCMV NEC inh: -5.7
Structure: CC(C)(C)C(=O)CSc1cccc2cccnc12
  GIV Gai3 FP: nt
  HCMV NEC inh: -32.5
Structure: CCN1C(=O)/C(=C/c2cn(CCC#N)nc2-c2ccc(F)cc2)SC1=S
  GIV Gai3 FP: nt
  HCMV NEC inh: -20.6
Structure: CCN(CC)C(=O)N(C)Cc1ccccc1
  GIV Gai3 FP: 112.4
  HCMV NEC inh: 6.9

Single records (already shown). Screens in order: GIV Gai3 FP	HCMV NEC inh
Listed for `O=C(O)c1cc2ccccc2c(=O)[nH]1` : 104.2	-23.2
Listed for `CN1C(=O)/C(=C/c2c(N3CCSCC3)nc3ccccn3c2=O)SC1=S` : 185.7	-4.5
Listed for `COc1cccc2c1N=C1OC=CC1C2OC` (stereo not drawn) : nt	53.7*

(more compounds)
Structure: CCCc1[nH]nc2c1C(c1c(Cl)noc1C)C(C#N)=C(N)N2c1ccccc1 (stereo not drawn)
  GIV Gai3 FP: nt
  HCMV NEC inh: -21.8
Structure: O=C(NCC1CC1)c1ccccc1NS(=O)(=O)c1cc(Cl)sc1Cl
  GIV Gai3 FP: 103.3
  HCMV NEC inh: -18.7
Structure: Cn1c(=O)cc2c3c(c(Br)ccc31)C(=O)c1ccccc1-2
  GIV Gai3 FP: 110.8
  HCMV NEC inh: nt
Structure: Cn1c(=O)c(O)c2c3c(c(Br)ccc31)C(=O)c1ccccc1-2
  GIV Gai3 FP: -29.3*
  HCMV NEC inh: nt
Structure: Cc1nn(-c2cccc(Cl)c2)c2c1C(=O)C1C(=O)CCCC1N2 (stereo not drawn)
  GIV Gai3 FP: nt
  HCMV NEC inh: -39.0
Structure: C=CC1=C(C(=O)O)N2C(=O)C(NC(=O)C(=NOCC(=O)O)c3csc(N)n3)C2SC1 (stereo not drawn)
  GIV Gai3 FP: nt
  HCMV NEC inh: 94.9*
Structure: C=CC1=C(C(=O)O)N2C(=O)[C@H](NC(=O)C(=NO)c3csc(N)n3)[C@H]2SC1
  GIV Gai3 FP: nt
  HCMV NEC inh: -22.9
Structure: COCCN1C(=O)/C(=C/c2cc(OC)c(O)cc2Br)SC1=S
  GIV Gai3 FP: -61.3*
  HCMV NEC inh: -39.3
Structure: COc1cc(OC)c(OC)cc1/C=C1/SC(=S)N(CC(=O)O)C1=O
  GIV Gai3 FP: 133.6
  HCMV NEC inh: -50.6
Structure: Cc1nc2ncnn2c(NC2CCN(C)CC2)c1C
  GIV Gai3 FP: 110.0
  HCMV NEC inh: nt
Structure: CCc1ccc2nc3sc(C(N)=O)c(N)c3cc2c1
  GIV Gai3 FP: 113.9
  HCMV NEC inh: -14.9
Structure: CCc1onc(C)c1C1CCCN1S(=O)(=O)c1ccc2c(c1)OCCN2C(C)=O (stereo not drawn)
  GIV Gai3 FP: 99.2
  HCMV NEC inh: nt
Structure: O=S(=O)(c1ccc2nsnc2c1)N1CCCCC1c1cccnc1 (stereo not drawn)
  GIV Gai3 FP: 102.4
  HCMV NEC inh: -57.5
Structure: O=S(=O)(c1ccc2c(c1)OCCO2)N1CCCCC1c1cccnc1 (stereo not drawn)
  GIV Gai3 FP: -70.7*
  HCMV NEC inh: -17.4
Structure: Cc1nn(C2CCS(=O)(=O)C2)c2nc(C3CC3)cc(C(=O)OCC#N)c12 (stereo not drawn)
  GIV Gai3 FP: nt
  HCMV NEC inh: -13.3

Molecules from the list above that contain fluorine:
Structure: N#CC1=C(N)SC(N)=C(C#N)C1c1ccccc1F
  GIV Gai3 FP: nt
  HCMV NEC inh: -19.9
Structure: O=c1cc(N2CCN(S(=O)(=O)c3ccc(F)c(F)c3)CC2)nc2sc(-c3ccccc3)nn12
  GIV Gai3 FP: 101.9
  HCMV NEC inh: 59.7*
Structure: CCN1C(=O)/C(=C/c2cn(CCC#N)nc2-c2ccc(F)cc2)SC1=S
  GIV Gai3 FP: nt
  HCMV NEC inh: -20.6

Additional structures:
Fields – GIV Gai3 FP, HCMV NEC inh
- CCOC(=O)/C(C#N)=C/c1ccccc1
→ 103.2, -75.9
- CCOC(=O)/C(C#N)=C\c1ccc(N2CCOCC2)cc1
→ -45.2*, -49.5
- CCNc1c2c3c(cccc3n(C)c1=O)C(=O)c1ccccc1-2
→ nt, -16.8
- Cn1c(=O)c(NC2CCCCC2)c2c3c(cccc31)C(=O)c1ccccc1-2
→ 3.5*, nt
- O=C(Cn1cnc2sc(-c3ccccc3)cc2c1=O)N1CCCC1
→ 105.5, -29.8
- COC(=O)C1=CN(Cc2ccc(OC)cc2)C=C(C(=O)OC)C1c1cc2c(cc1Br)OCO2
→ 104.1, nt
- Cc1ccc2onc(CNC(=O)NCCCN3CCN(c4cc(Cl)ccc4C)CC3)c2c1
→ 104.2, -4.2
- CCCCCCc1cc2cc(-c3csc(Nc4ccc(Cl)cc4Cl)n3)c(=O)oc2cc1O
→ 195.9, -23.0
- CCCCCCc1cc2cc(-c3nnc(-c4ccc(C)cc4)o3)c(=O)oc2cc1O
→ 7.6*, 2.8
- Cc1nc2c3c(cccc3n1)C(=O)c1ccccc1-2
→ 91.5, -95.9
- Nc1cnc2cccc3c2c1-c1ccccc1C3=O
→ -73.7*, -60.1
- O=C(c1ccc2nc(/C=C(\O)c3ccc(Cl)cc3)c(=O)[nH]c2c1)N1CCN(c2ccco2)CC1
→ 329.6, -81.1
- O=C(c1ccc2nc(/C=C(\O)c3ccc(Cl)cc3)c(=O)[nH]c2c1)N1CCOCC1
→ 67.9*, -95.0
- COc1ccccc1OCCOc1ccc(F)cc1
→ 101.4, -2.0
- CC1(C)OC2OC(C(=O)Nc3ccc(Cl)c(Cl)c3)C3OC(C)(C)OC3C2O1 (stereo not drawn)
→ 101.5, nt
- COC(=O)c1ccc(-n2c(C)cc3ccccc32)s1
→ 105.7, -7.3
- Cc1cc2ccccc2n1-c1ccc(C(=O)NC2CCCC2)s1
→ 107.6, 56.4*
- CC(C)c1ccc(NC(=O)Cn2nc(C(=O)Nc3ccccc3)ccc2=O)cc1
→ 101.0, nt
- NC(=O)c1sc(=S)n2c1[nH]c(=O)c1ccccc12
→ 103.1, nt
- Cc1ccc2[nH]c3c(c2c1)CCc1cn[nH]c1-3
→ 98.9, -16.5
- Cc1ccc2[nH]c3c(c2c1)CCC1C3=NNC1c1ccco1 (stereo not drawn)
→ -65.7*, nt
- Cc1ccc(-n2c(O)c(C=Nc3ccc(S(=O)(=O)Nc4nccs4)cc3)c(=O)[nH]c2=O)cc1
→ 117.6, nt
- CCOc1ccc2cc(-c3nc4ccccc4s3)c(=O)oc2c1
→ 107.4, -15.5
- COc1ccc(Nc2nnc(-c3cc4c(ccc5ccccc54)oc3=O)s2)cc1
→ 101.9, -24.7
- O=c1oc2cc(O)ccc2cc1-c1nnc(Nc2ccccc2F)s1
→ 230.5, -39.0
- O=c1oc2cc(O)ccc2cc1-c1nc2ccccc2s1
→ -78.8*, -60.4
- O=C(Oc1ccc2cc(-c3nc4ccccc4s3)c(=O)oc2c1)c1ccco1
→ -41.9*, nt

From PubChem BioAssay
